Test results published in ChEMBL document CHEMBL5034034, “A Series of Novel, Highly Potent, and Orally Bioavailable Next-Generation Tricyclic Peptide PCSK9 Inhibitors” (J Med Chem, 2021).

Chains of the proteins cited; added tags and fusions are not shown. Residues count along the entry.
UniProt Q8NBP7, 31-152 limits assumed: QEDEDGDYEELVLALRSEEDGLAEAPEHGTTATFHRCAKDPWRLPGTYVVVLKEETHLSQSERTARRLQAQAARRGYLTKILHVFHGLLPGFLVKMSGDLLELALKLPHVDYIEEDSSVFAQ
UniProt Q8NBP7, 153-692 limits assumed: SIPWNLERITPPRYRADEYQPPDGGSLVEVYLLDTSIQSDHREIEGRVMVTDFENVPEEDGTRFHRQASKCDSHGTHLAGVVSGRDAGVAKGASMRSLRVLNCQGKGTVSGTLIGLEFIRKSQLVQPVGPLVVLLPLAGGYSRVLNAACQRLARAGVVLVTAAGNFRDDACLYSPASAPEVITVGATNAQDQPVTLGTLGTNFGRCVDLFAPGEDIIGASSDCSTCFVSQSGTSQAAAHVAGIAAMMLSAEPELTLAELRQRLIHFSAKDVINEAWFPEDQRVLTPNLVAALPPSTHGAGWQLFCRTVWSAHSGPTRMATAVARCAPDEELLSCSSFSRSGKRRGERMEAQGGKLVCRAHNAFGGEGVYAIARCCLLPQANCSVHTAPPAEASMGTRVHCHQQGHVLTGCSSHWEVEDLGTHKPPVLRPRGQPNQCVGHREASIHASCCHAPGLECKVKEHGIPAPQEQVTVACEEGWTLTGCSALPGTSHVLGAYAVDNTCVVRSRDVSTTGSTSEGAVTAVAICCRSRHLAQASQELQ

Molecular target: Proprotein convertase subtilisin/kexin type 9 (Homo sapiens, UniProt Q8NBP7)
Test: Inhibition of human PCSK9 using Alexa Fluor […] as substrate incubated for 2 hrs by FRET assay

Question: COc1ccc(C[C@@H]2NC(=O)[C@H]([C@@H](C)OC)NC(=O)[C@@H]3CC/C=C/COc4cccc(c4)C[C@H](NC(=O)[C@@H](C)NC(=O)[C@H](C)NC(=O)CCSCc4cccc(c4)CSCCNC(=O)[C@]4(C)CCCN4C2=O)C(=O)N[C@@H](Cc2c[nH]c4ccc(F)cc24)C(=O)N3C)cc1 was tested. Which Ki did it give?
Answer: 40.7 nM
